Measurements from patent publication US20250042848A1, “DEUTERATED FUNCTIONALIZED DERIVATIVES OF alpha-ALANINE, IN [sequence] FOR THE TREATMENT OF NEUROLOGICAL DISEASES” (UNIWERSYTET JAGIELLONSKI, priority 2021, published 2025).

Details: mouse, in vivo, po, 40 mg/kg
Procedure: The animals were housed at a temperature of 22-24° C., humidity of 50% (+/−10%), in a room providing 15 air changes per hour, with 12:12 hours light-dark cycle. In addition, they had constant access to food and water. […] Blood was allowed to clot at room temperature for 20 min, then centrifuged for 5 min, 10,000×g (Eppendorf miniSpin centrifuge, Germany) to obtain serum. The obtained biological material was stored at −70° C. until analysis.
Concentrations of the tested compounds in murine serum and brain homogenates were determined by high-performance liquid chromatography-tandem mass spectrometry (HPLC-MS/MS). Analyzes were performed on a Sciex QTRAP 4500 triple quad mass spectrometer coupled to an Exion LC AC HPLC (Danaher Corporation, USA). The chromatographic separation was carried out on a Hypersil Gold™ C18 column (3×50 mm, 5 μm, Thermo Scientific, USA), using a mixture of acetonitrile and water with 0.1% formic acid as the mobile phase. Analyzes were performed at 40° C. and the gradient shown in Table 7 was used to obtain optimal retention time. Valsartan was used as an internal standard. Positive ionization mode (ESI+) was used for maximum sensitivity. Ion path parameters were optimized by continuous infusion (7 μL/min) of a solution of the tested compound directly to the mass spectrometer using a syringe pump. […]

## [2H]C([2H])(NC(=O)[C@@H](C)N1C(=O)C([2H])([2H])C([2H])([2H])C1=O)c1ccccc1F [d6-(R)-7, (R)-2-(2,5-dioxopyrrolidin-1-yl-3,3,4,4-d4)-N-((2-fluorophenyl)methyl-d2) propanamide]
  Vz/F: 1.45 L/kg
